This test concerns the target human plasma kallikrein (Homo sapiens (Human), UniProt P03952). As to the kind of experiment: Plasma Kallikrein Activity Assay. Type of test: biochemical. The following applies: 2 nM kallikrein, 80 μM chromogenic substrate S2302, 30° C., pH 7.8; Ki by Cheng-Prusoff equation.

Sequences of proteins named here, by UniProt entry; tags and fusion partners are left off.
UniProt P03952, whole entry, looked up: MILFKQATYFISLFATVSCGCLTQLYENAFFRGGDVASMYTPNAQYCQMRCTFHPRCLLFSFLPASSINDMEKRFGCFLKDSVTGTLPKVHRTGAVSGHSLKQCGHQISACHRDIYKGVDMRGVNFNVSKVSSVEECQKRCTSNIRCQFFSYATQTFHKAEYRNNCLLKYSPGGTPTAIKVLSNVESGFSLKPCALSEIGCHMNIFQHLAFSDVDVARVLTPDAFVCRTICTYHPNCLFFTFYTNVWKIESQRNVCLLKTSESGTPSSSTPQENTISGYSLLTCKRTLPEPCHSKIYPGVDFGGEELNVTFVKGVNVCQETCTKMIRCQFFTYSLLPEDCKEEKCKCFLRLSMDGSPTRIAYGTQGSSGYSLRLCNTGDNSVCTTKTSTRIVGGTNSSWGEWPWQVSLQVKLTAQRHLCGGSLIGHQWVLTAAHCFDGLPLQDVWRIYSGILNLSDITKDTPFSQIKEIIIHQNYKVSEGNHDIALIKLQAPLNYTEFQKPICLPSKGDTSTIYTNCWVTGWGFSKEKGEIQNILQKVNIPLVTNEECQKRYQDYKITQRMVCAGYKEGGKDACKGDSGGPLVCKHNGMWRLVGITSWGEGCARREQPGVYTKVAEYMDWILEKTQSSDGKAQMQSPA

Data on one substance can be found in patent US10329260B2, “Human plasma kallikrein inhibitors” (BioCryst Pharmaceuticals, Inc., priority 2014, dated 2019).

What is called Ki is a measure of affinity in units of concentration, obtained from inhibition or displacement. Read a low Ki as higher affinity.

“1-(3-(aminomethyl)phenyl)-N-(5-((4-(aminomethyl)phenyl)(cyclopropyl-methylamino)methyl)-2-fluorophenyl)-3-(trifluoromethyl)-1H-pyrazole-5-carboxamide [Compound 139b]” yielded a Ki of 0.1 to 50 nM.
